# Several values for one entry are separate records, joined by “and”; a condition that tells them apart may be missing. Equal values may be shown once.
# Amino acid sequences for entries named in this document (tags omitted). Residues count along the entry.
# UniProt P08069, 741-1367 limits assumed: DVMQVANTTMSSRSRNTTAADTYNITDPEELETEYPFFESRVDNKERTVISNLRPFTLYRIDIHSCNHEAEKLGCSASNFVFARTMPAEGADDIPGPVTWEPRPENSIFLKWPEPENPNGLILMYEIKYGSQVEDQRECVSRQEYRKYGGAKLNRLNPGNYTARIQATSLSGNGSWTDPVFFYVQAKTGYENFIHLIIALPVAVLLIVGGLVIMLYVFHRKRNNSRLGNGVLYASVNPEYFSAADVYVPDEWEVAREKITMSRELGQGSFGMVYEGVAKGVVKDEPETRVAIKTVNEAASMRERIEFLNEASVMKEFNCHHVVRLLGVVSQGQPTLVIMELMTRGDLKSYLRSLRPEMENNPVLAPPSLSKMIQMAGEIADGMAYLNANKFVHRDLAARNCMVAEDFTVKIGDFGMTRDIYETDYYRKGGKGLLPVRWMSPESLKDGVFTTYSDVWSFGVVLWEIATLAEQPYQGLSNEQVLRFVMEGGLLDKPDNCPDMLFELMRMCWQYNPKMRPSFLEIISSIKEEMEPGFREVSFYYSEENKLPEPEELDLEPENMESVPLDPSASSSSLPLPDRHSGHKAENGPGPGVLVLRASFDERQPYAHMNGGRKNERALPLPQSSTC
# UniProt P08069, 31-736 limits assumed: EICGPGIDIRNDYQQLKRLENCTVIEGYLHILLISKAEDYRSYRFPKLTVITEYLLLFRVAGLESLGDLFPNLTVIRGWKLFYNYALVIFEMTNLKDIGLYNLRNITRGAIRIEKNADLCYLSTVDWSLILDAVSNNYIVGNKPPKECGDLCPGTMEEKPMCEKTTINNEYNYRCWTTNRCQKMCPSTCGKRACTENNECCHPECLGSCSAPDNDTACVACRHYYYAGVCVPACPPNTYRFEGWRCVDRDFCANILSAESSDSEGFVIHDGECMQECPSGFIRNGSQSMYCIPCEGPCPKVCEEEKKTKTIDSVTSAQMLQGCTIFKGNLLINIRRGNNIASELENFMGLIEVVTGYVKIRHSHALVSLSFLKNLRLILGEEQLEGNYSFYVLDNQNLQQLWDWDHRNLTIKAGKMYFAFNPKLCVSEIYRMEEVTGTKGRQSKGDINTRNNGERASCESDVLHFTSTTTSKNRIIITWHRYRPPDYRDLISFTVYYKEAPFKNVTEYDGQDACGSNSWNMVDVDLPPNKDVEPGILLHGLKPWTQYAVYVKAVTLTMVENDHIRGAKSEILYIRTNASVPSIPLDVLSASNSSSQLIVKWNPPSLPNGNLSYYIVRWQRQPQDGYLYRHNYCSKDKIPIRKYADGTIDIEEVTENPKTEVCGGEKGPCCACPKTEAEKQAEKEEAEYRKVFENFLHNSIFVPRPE
# Columns and labels:
# HIGF-1R = molecular target: T1, HIGF-1R (Homo sapiens, UniProt P08069); experiment: IGF-1R affinity, scintillation proximity assay (SPA assay), 125I-IGF1 displacement; type: binding; details: read-out: HIGFIR Affinity (SPA-assay); IC50 for binding used as a measure of Kd
# T1 construct: HIGF-1R was purified from a cell culture of BHK cells stably transfected with IGF-1R cDNA; made in house; host or cells: BHK cells stably transfected with IGF-1R cDNA
# Method: In certain cases, a scintillation proximity assay (SPA assay) was used to determine IGF-1R affinity. Briefly, anti-mouse SPA beads were mixed with an HIGF-1R antibody (24-31) and WGA-purified HIGF-1R from transfected cells. The binding buffer was 0.1 M Hepes, pH 7.8, 0.1 M NaCl, 10 mM MgCl2, 0.025% Tween-20, 0.5% BSA. To this mixture was added ^125I-IGF1 and a dilution series of IGF1 or the peptide to be determined.
# MCF7 cells = MCF7 cells (Homo sapiens, UniProt P08069); type: cell-based; details: read-out: Cell; Table 10, antagonism in MCF7 cells
# Method: Additional binding and antagonism assays using candidate peptides were performed. […] Cell viability was determined by luminescence assay and IC50 was calculated using standard techniques.
# [1] = stability in CD-1 mouse plasma at 37° C., LC-MS/MS; type: in vitro ADME
# Method: In this study, the stability of Test Article F429 in CD-1 mouse plasma was evaluated following incubation at 37° C. for twelve sampling time points. Plasma levels of Test Article F429 were determined by LC-MS/MS, and the results were processed and interpreted (half-life).
# A 150-4 aliquot of Test Article F429 (2.0 mg/mL) was added into 2850 μL of CD-1 mouse plasma, for a final concentration of Test Article F429 at 100 μg/mL. The sample was mixed and immediately put into a 37° C. reciprocal shaking water bath (Precision, Winchester, Va.). Triplicate 75-4 aliquots were sampled at twelve sample time points (blank test article, 1, 2, 5, 10, 15, 20, 30, 60 min and 2, 4 and 24 hrs). The aliquots were immediately frozen at −80° C.
# All mouse plasma samples were diluted two-fold with in-house blank CD-1 mouse plasma. Then, aliquots (50 pt) of mouse plasma and spiked F429 mouse plasma samples were added into 200 μl of water, then combined with 250 μL of pH 7.4, 10 mM phosphate buffer solution and mixed well. The final volume of the prepared solution was 500 μL, which was ready for solid phase extraction sample preparation.
# The Strata X 96-well plates solid phase extraction cartridge (8E-S100-TGB, Phenomenex) was placed on a vacuum manifold with the vacuum set to 5 mm Hg for sample preparation. The plate was first conditioned with 1.0 mL of acetonitrile following the equilibration with 1.0 mL of water. Then 500 μL of samples were loaded onto the plate and later were washed twice with 0.5 mL of 5% acetonitrile in water. The receiver was replaced with a 96-deep well collection plate. The cartridge was then eluted with 80% acetonitrile in water containing 1% ammonium hydroxide twice. A 100-μL aliquot of each of the eluted samples was transferred to vials for analysis by LC-MS/MS. Quantification of the test article, F429, in mouse plasma was performed against calibration curves generated by spiking the test article into blank mouse plasma (100, 75, 50, 37.5, 25, 10, 5, and 2.5 μg/mL final concentrations).
# An eight-point standard curve in triplicate at each concentration level was interspersed with the samples during each run. At least the two closest determinations for each concentration were used to generate the calibration curve. The acceptance criteria were that five out of eight standards must be within ±30% for the stability plasma sample analysis.
# Individual rat plasma concentrations of Test Article F429 vs. time data, as well as mean data for each dosing group, are shown in Tables 19 and 20. The plots of the individual and mean plasma concentration of F429 versus time following the incubation of 100 μg/mL F429 are shown in FIG. 13 and FIG. 14. All samples that were below the limit of quantification were assigned a value of zero. All data are expressed as μg/mL of the F429 free drug.
# [2] = toxicity study in MiaPaCa tumor-bearing nude mice; type: in vivo; details: 500 ug/injection (20 mg/kg) subcutaneous 4 times per week for 3 weeks; body weight; FIG. 20
# Method: Nude mice were inoculated with MiaPaCa cells (one million cells in matrigel) on the flank and followed until tumors reached a volume of greater than 100 mm^3. Animals were randomized and placed into 3 treatment groups: control (no injections), vehicle, ANT-429 and vehicle at 500 ug/injection (20 mg/kg). Animals were injected by the subcutaneous route 4 times per week for 3 weeks and followed for an additional 2 weeks without injections. Tumors and body weight were measured twice weekly.
# [3] = CD-1 mouse plasma, incubation of 100 μg/mL F429, incubation time 0 min
# [4] = CD-1 mouse plasma, incubation of 100 μg/mL F429, incubation time 1 min
# [5] = CD-1 mouse plasma, incubation of 100 μg/mL F429, incubation time 2 min
# [6] = CD-1 mouse plasma, incubation of 100 μg/mL F429, incubation time 5 min
# [7] = CD-1 mouse plasma, incubation of 100 μg/mL F429, incubation time 10 min
# [8] = CD-1 mouse plasma, incubation of 100 μg/mL F429, incubation time 15 min
# [9] = CD-1 mouse plasma, incubation of 100 μg/mL F429, incubation time 20 min
# [10] = CD-1 mouse plasma, incubation of 100 μg/mL F429, incubation time 30 min
# [11] = CD-1 mouse plasma, incubation time 0 min
# [12] = CD-1 mouse plasma, incubation time 1 min
# [13] = CD-1 mouse plasma, incubation time 2 min
# [14] = CD-1 mouse plasma, incubation time 5 min
# [15] = CD-1 mouse plasma, incubation time 10 min
# [16] = CD-1 mouse plasma, incubation time 15 min
# [17] = CD-1 mouse plasma, incubation time 20 min
# [18] = CD-1 mouse plasma, incubation time 30 min
# [19] = CD-1 mouse plasma, incubation time 60 min
# [20] = CD-1 mouse plasma, incubation time 120 min
# [21] = CD-1 mouse plasma, incubation time 240 min
sequence,measurement,setting,value
DFYGCLLDLSLGVPSLGWRRRCITA [Peptide F429],Kd,HIGF-1R,0.63 nM
same,IC50,MCF7 cells,12 to 558 nM
same,stability half-life in CD-1 mouse plasma,"[1]; 37° C., 100 μg/mL",1.22 h
same,remaining percentage,"[1]; CD-1 mouse plasma, 37° C., at 4 hours",9.65%
same,Calculated Conc. (individual sample),[1]; [3],65.5 µg/mL and 72.2 µg/mL and 76.8 µg/mL
same,Mean Calculated Conc. (n = 3),[1]; [3],71.5 µg/mL
same,Calculated Conc. (individual sample),[1]; [4],59.3 µg/mL and 60.6 µg/mL and 49.7 µg/mL
same,Mean Calculated Conc. (n = 3),[1]; [4],56.5 µg/mL
same,Calculated Conc. (individual sample),[1]; [5],56.6 µg/mL and 57.9 µg/mL and 66.8 µg/mL
same,Mean Calculated Conc. (n = 3),[1]; [5],60.4 µg/mL
same,Calculated Conc. (individual sample),[1]; [6],68.6 µg/mL and 67.0 µg/mL and 59.7 µg/mL
same,Mean Calculated Conc. (n = 3),[1]; [6],65.1 µg/mL
same,Calculated Conc. (individual sample),[1]; [7],63.0 µg/mL and 64.3 µg/mL and 61.7 µg/mL
same,Mean Calculated Conc. (n = 3),[1]; [7],63.0 µg/mL
same,Calculated Conc. (individual sample),[1]; [8],60.4 µg/mL and 60.0 µg/mL and 61.8 µg/mL
same,Mean Calculated Conc. (n = 3),[1]; [8],60.7 µg/mL
same,Calculated Conc. (individual sample),[1]; [9],63.9 µg/mL and 62.4 µg/mL and 56.9 µg/mL
same,Mean Calculated Conc. (n = 3),[1]; [9],61.1 µg/mL
same,Calculated Conc. (individual sample),[1]; [10],58.0 µg/mL and 58.3 µg/mL and 57.7 µg/mL
same,Mean Calculated Conc. (n = 3),[1]; [10],58.0 µg/mL
same,Mean Calculated Conc. (n = 3),"[1]; CD-1 mouse plasma, incubation of 100 μg/mL F429, incubation time 60 min",43.2 µg/mL
same,Calculated Conc. (individual sample),"[1]; CD-1 mouse plasma, incubation of 100 μg/mL F429, incubation time 60 min (1 hr)",39.9 µg/mL and 49.4 µg/mL and 40.2 µg/mL
same,Mean Calculated Conc. (n = 3),"[1]; CD-1 mouse plasma, incubation of 100 μg/mL F429, incubation time 120 min",21.1 µg/mL
same,Calculated Conc. (individual sample),"[1]; CD-1 mouse plasma, incubation of 100 μg/mL F429, incubation time 120 min (2 hr)",21.7 µg/mL and 19.6 µg/mL and 21.9 µg/mL
same,Mean Calculated Conc. (n = 3),"[1]; CD-1 mouse plasma, incubation of 100 μg/mL F429, incubation time 240 min",6.90 µg/mL
same,Calculated Conc. (individual sample),"[1]; CD-1 mouse plasma, incubation of 100 μg/mL F429, incubation time 240 min (4 hr)",5.41 µg/mL and 8.02 µg/mL and 7.26 µg/mL
same,Calculated Conc. (individual sample),"[1]; CD-1 mouse plasma, incubation of 100 μg/mL F429, incubation time 1440 min (24 hr)",blq and 2.98 ug/mL
same,Mean Calculated Conc. (n = 3),"[1]; CD-1 mouse plasma, incubation of 100 μg/mL F429, incubation time 1440 min, blq assigned a value of zero",0.00 µg/mL
same,Ln (logarithm of the remaining percentage),[1]; [11],4.61
same,Remaining (%) from time zero,[1]; [11],100%
same,Ln (logarithm of the remaining percentage),[1]; [12],4.37
same,Remaining (%) from time zero,[1]; [12],79.1%
same,Ln (logarithm of the remaining percentage),[1]; [13],4.44
same,Remaining (%) from time zero,[1]; [13],84.5%
same,Ln (logarithm of the remaining percentage),[1]; [14],4.51
same,Remaining (%) from time zero,[1]; [14],91.0%
same,Ln (logarithm of the remaining percentage),[1]; [15],4.48
same,Remaining (%) from time zero,[1]; [15],88.1%
same,Ln (logarithm of the remaining percentage),[1]; [16],4.44
same,Remaining (%) from time zero,[1]; [16],84.9%
same,Ln (logarithm of the remaining percentage),[1]; [17],4.45
same,Remaining (%) from time zero,[1]; [17],85.4%
same,Ln (logarithm of the remaining percentage),[1]; [18],4.40
same,Remaining (%) from time zero,[1]; [18],81.1%
same,Ln (logarithm of the remaining percentage),[1]; [19],4.10
same,Remaining (%) from time zero,[1]; [19],60.4%
same,Ln (logarithm of the remaining percentage),[1]; [20],3.38
same,Remaining (%) from time zero,[1]; [20],29.5%
same,Ln (logarithm of the remaining percentage),[1]; [21],2.27
same,Remaining (%) from time zero,[1]; [21],9.65%
same,Remaining (%) from time zero,"[1]; CD-1 mouse plasma, incubation time 1440 min",0.0%
same,adverse effects,[2],None of the animals treated with ANT-429 demonstrated any apparent adverse effects

# Reference: patent US20110039779A1, “IGF-1R BINDING PROTEINS AND ANTAGONISTS” (priority 2007, published 2011)
